Data: patent US20130295185A1, “COMPOUNDS AND METHODS FOR INDUCING APOPTOSIS IN CANCER CELLS USING A BH3 ALPHA-HELICAL MIMETIC” (H. Lee Moffitt Cancer Center and Research Institute, Inc., priority 2011, published 2013)

Chains of the proteins cited; added tags and fusions are not shown.
UniProt Q07817, whole entry: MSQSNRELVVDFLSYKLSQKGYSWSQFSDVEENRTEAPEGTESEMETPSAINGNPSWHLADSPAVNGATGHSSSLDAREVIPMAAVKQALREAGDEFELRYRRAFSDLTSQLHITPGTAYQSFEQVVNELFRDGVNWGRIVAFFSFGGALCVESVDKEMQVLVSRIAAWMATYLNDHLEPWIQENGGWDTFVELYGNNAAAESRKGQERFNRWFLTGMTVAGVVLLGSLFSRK

How the values were obtained:
[1] = target: Bcl-XL/Bax and Bcl-XL/Bim (Homo sapiens, UniProt Q07817); assay: Co-immunoprecipitation from A549 cells; details: A549, serum-starved, 25 and 50 μM, 1 h; tested form: diammonium salt (as drawn, CO2NH4)
Method: FIG. 4 is a series of images illustrating BH3-M6 inhibits the interaction between Bcl-XL, Bcl-2, and Mcl-1 with Bim, Bak or Bax in intact cells. (A) Co-immunoprecipitation from HEK293T cells. HEK293T cells were co-transfected with HA-Bcl-XL and Flag-BimEL for 18 h. Cells were exposed to 0, 25, 50, and 100 μM of BH3-M6 or 100 μM of TPC for 2 h at 37° C., lysed and subjected to immunoprecipitation with anti-FLAG-M2 beads. The resulting immune complexes, as well as total lysates, were analyzed by Western blotting with the indicated antibodies. (B) Co-immunoprecipitation from MDA-MB-468 cells expressing Bcl-XL-IRES-BimEL, Bcl-2-IRES-BimEL, and Mcl-1-IRES-BimEL. […] The resulting immune complexes were analyzed by Western blotting with Bim, Bcl-XL, Bcl-2, and Mcl-1 antibodies. […] The resulting immune complexes were analyzed by Western blotting with the indicated antibodies. […] The resulting immune complexes were analyzed by Western blotting with the antibodies indicated on the right. […]
Next the inventors determined whether BH3-M6 could disrupt these interactions of the corresponding endogenous proteins. […] Finally, a mechanism by which freed Bax is believed to induce apoptosis is through a conformational change, which can be detected by a specific antibody. […]

[2] = Tumor accumulation in A549 xenograft nude mice; details: IP, 30 mg/kg, in DMSO, tested form: diammonium salt (as drawn, CO2NH4)
Method: FIG. 10 is an image depicting tumor accumulation of the BH3M6 compound at 30 mg/kg from free drug delivered i.p., or micelle formulation delivered i.v. or oral gavage.
An A549 lung cancer xenograft model was used for the plasma and tumor accumulation studies. A549 lung cancer xenografts were grown in nude mice by implanting approximately 10 million cells into the right flank of each mouse, and allowed 3 weeks for the tumors to establish log growth and reach about 300-400 mm^3. The formulation from Example 2 was dissolved in 150 mM NaCl for both intravenous (IV) administration and oral administration. The free drug was dissolved in DMSO for intraperitoneal (IP) administration. Time points for sample collection were 5 minutes, 1 hour and 6 hours post administration. Naive, tumor-bearing mice were used as controls for blank plasma and tumor tissue. Blood was collected by heart puncture, where approximately 500 μL was added to a 1.5 mL collection tube containing EDTA as anticoagulant. Plasma was isolated from blood by centrifugation at 2000 RPM for 5 minutes. The BH3-M6 compound was extracted from plasma by adding 50 μL of each plasma sample to 150 μL ice cold methanol. Samples were vortexed for 10 minutes, centrifuged at 13,000 RPM for 10 minutes, and the methanol supernatant was collected for HPLC analysis to determine plasma pharmacokinetics of the BH3-M6 compound. […]

SMILES: CC(C)Cc1cc(-c2ccc(-c3ccc(CCC(=O)O)cc3CC(C)C)cc2Cc2ccccc2)ccc1OCC(=O)O
- disruption of interaction of Bcl-XL/Bax and Bcl-XL/Bim [1]: able to disrupt
- AUC [2]: 11.5 µg·h/g
- TMax [2]: 6 h
